What all share (assay type): biochemical
For assay [1], the target named is neuraminidase of influenza virus A/California/04/09 (Influenza A virus, UniProt C3W5S3). The note with it: read-out: neuraminidase activity IC50.
For assay [2], the target named is neuraminidase of influenza virus A/California/07/09 (H1N1) (Influenza A virus, UniProt C3W6G3). Particulars: read-out: IC50, nM (number of experiments).
Assay [3] addresses neuraminidase of influenza virus B/Brisbane/60/2008 (Influenza B virus, UniProt C0LT34). Particulars: read-out: IC50, nM (number of experiments).

`CCC(CC)O[C@@H]1C=C(C(=O)O)C[C@H](N)[C@H]1NC(C)=O` [A2, (3R,4R,5S)-5-amino-4-acetamido-3-(pentan-3-yloxy)cyclohex-1-enecarboxylic acid, reference compound]: the IC50 in assay [1] amounted to 0.8 nM; in assay [2], 0.86 nM; in assay [3] it was 25.4 nM.

In general, IC50 refers to the concentration that gives 50% inhibition.

Values taken from US8895613B2 (priority 2013, dated 2014).
